# Measurements reported in patent publication US20060074046A1, “Oral administration of decitabine salt” (priority 2004, published 2006).
# Conditions: t = 24 hr, 0.05 M phosphate buffer, 0.5 mg/mL, ambient
smiles,measurement,value
"Nc1ncn([C@@H]2O[C@H](CO)[C@@H](O)[C@H]2O)c(=O)n1 [Compound 2, 5-azacytidine, reference compound]",Potency Found (%) At pH 2.5,54.85%
